This is a selection; strong and weak results do not stand in their true shares. Active and inactive are the calls of the source. Cut-off read from the data, not from the text of the source: active = inhibition above about 20%; inactive = the rest.

Protein sequences, listed by entry. Tags and fused reporters are not part of them.
UniProt P25929, whole entry, looked up: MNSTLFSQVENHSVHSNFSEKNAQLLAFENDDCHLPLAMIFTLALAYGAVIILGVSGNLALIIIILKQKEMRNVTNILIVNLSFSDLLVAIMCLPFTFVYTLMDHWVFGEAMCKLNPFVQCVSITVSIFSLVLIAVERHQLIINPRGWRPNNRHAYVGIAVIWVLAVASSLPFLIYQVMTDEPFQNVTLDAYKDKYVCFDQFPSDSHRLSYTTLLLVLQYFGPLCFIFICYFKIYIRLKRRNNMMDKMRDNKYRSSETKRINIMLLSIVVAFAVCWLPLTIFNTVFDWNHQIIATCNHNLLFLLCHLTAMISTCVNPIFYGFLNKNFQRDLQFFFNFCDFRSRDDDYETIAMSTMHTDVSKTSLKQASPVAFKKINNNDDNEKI

Experimental findings from PubChem BioAssay AID1256 (The Scripps Research Institute Molecular Screening Center, 2008) are described below.

The assay has as its target Neuropeptide Y receptor type 1 (Homo sapiens) (UniProt P25929). Kind of assay: NPY-Y1 receptor antagonists, selectivity check, counter-screen for NPY-Y2 antagonist project, cell-based (AID 1256).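 Note: cells challenged with NPY then isoproterenol with cAMP sensed through a CNG channel.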 To be noted: cell-based NPY-Y1 antagonism counterscreen; at 3.6 µM; active compounds read high.

Regarding `CCc1nc2c(n1)c1c(non1O)c1c2no[n+]1[O-]`, the inhibition was active: 22.7%.
